Chains of the proteins cited; added tags and fusions are not shown. Lines headed by an entry give the natural chain unless they say otherwise; changes in a name come on top.
UniProt P14780: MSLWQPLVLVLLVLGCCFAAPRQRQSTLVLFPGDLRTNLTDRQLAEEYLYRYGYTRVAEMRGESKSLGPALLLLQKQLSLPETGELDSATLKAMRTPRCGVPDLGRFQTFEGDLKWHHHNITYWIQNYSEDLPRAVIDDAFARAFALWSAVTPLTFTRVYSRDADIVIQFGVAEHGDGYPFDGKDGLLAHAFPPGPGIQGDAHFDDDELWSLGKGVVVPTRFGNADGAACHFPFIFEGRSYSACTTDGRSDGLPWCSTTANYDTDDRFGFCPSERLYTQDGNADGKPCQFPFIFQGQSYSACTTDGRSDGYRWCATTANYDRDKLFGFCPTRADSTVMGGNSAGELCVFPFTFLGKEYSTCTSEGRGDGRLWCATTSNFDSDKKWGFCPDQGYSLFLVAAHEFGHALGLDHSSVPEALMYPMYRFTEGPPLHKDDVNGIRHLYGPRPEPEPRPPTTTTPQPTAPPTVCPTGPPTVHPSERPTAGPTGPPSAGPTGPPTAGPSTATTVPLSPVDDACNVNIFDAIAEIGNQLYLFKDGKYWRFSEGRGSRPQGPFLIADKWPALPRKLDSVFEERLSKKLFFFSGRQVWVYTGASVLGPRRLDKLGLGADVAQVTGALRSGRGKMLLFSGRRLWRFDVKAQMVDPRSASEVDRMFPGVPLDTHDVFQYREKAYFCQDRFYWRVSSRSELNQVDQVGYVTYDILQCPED

In ChEMBL document CHEMBL1144950, “Structure--activity relationships of azasugar-based MMP/ADAM inhibitors” (Bioorg Med Chem Lett, 2003):

molecular target: Matrix metalloproteinase-9 (Homo sapiens, UniProt P14780); test: Inhibition of recombinant human matrix metalloprotease-9

Row | Ki [nM] | SMILES
1 | 4.8 | COc1ccc(S(=O)(=O)N2C[C@H](O)[C@@H](O)[C@H](O)[C@@H]2C(=O)NO)cc1
2 | 82 | COc1ccc(S(=O)(=O)N2C[C@@H](O)[C@H](O)[C@@H](O)[C@@H]2C(=O)NO)cc1
3 | 780 | COc1ccc(S(=O)(=O)N2C[C@H](O)[C@H](O)[C@@H](O)[C@@H]2C(=O)NO)cc1
4 | 157 | COc1ccc(S(=O)(=O)N2C[C@H](O)[C@@H](O)[C@@H](O)[C@@H]2C(=O)NO)cc1
